The test system of the experiment is human serum albumin (HSA). The experiment can be described thus: Competitive inhibition of HSA MG-H1 formation. In kind it is biochemical. The settings on record: FIG. 2B; HSA with MG and scavenger. The procedure:
In short, pure MG-1,1-dimethylacetal was heated in sulphuric acid solution for 1 h and fractionally distilled in a column containing glass helices under reduced pressure. Fractions were analyzed by ^1H and ^13C NMR. […] Two parts urea (8M urea, 0.5 M TrisHCl; pH8.0) were added to the solution and the sample was vortexed. HSA was precipitated by addition of two parts acetonitrile (respective to the final sample/urea mixture) and collected by centrifugation for 10′ at 13000 g. […] The HSA containing pellet was dissolved in 20 mM HCl and the protein content was determined by BCA assay. […] The amount of HSA-MG-H1 adduct was determined by LC-MS. Samples and standard curve were spiked with d3-MG-H1 (Polypeptide Group, San Diego, Calif., USA) and derivatized with Fmoc-Cl. Separation was performed on a C18 column (Hypersil Gold aQ; Thermo Scientific, USA) using a 20 min gradient of 0-100% acetonitrile (0.1% TFA) with the first five minutes diverted to waste. Analysis was carried out on an Exactive Orbitrap MS system (Thermo Scientific, USA). […] The calibration range used for the assay was 0-30 pmol.

`CN(CC(=O)O)C(=N)N` [Cre, creatine]: the “prevention of HSA-MG-H1 formation” value is recorded as “only a trend”.
